This assay addresses human ACC2 (Homo sapiens (Human), UniProt O00763). Put plainly: ACC2 assay, spectrophotometric 384 well assay (NADH-linked, coupled lactate dehydrogenase/pyruvate kinase reaction). In kind it is biochemical. The note with it: hACC2 construct lacking the 128 N-terminal amino acids; 25° C., 340 nm over 15 minutes.

Sequences of proteins named here, by UniProt entry; tags and fusion partners are left off. Residues count along the entry.
UniProt O00763, 129-2458 limits assumed: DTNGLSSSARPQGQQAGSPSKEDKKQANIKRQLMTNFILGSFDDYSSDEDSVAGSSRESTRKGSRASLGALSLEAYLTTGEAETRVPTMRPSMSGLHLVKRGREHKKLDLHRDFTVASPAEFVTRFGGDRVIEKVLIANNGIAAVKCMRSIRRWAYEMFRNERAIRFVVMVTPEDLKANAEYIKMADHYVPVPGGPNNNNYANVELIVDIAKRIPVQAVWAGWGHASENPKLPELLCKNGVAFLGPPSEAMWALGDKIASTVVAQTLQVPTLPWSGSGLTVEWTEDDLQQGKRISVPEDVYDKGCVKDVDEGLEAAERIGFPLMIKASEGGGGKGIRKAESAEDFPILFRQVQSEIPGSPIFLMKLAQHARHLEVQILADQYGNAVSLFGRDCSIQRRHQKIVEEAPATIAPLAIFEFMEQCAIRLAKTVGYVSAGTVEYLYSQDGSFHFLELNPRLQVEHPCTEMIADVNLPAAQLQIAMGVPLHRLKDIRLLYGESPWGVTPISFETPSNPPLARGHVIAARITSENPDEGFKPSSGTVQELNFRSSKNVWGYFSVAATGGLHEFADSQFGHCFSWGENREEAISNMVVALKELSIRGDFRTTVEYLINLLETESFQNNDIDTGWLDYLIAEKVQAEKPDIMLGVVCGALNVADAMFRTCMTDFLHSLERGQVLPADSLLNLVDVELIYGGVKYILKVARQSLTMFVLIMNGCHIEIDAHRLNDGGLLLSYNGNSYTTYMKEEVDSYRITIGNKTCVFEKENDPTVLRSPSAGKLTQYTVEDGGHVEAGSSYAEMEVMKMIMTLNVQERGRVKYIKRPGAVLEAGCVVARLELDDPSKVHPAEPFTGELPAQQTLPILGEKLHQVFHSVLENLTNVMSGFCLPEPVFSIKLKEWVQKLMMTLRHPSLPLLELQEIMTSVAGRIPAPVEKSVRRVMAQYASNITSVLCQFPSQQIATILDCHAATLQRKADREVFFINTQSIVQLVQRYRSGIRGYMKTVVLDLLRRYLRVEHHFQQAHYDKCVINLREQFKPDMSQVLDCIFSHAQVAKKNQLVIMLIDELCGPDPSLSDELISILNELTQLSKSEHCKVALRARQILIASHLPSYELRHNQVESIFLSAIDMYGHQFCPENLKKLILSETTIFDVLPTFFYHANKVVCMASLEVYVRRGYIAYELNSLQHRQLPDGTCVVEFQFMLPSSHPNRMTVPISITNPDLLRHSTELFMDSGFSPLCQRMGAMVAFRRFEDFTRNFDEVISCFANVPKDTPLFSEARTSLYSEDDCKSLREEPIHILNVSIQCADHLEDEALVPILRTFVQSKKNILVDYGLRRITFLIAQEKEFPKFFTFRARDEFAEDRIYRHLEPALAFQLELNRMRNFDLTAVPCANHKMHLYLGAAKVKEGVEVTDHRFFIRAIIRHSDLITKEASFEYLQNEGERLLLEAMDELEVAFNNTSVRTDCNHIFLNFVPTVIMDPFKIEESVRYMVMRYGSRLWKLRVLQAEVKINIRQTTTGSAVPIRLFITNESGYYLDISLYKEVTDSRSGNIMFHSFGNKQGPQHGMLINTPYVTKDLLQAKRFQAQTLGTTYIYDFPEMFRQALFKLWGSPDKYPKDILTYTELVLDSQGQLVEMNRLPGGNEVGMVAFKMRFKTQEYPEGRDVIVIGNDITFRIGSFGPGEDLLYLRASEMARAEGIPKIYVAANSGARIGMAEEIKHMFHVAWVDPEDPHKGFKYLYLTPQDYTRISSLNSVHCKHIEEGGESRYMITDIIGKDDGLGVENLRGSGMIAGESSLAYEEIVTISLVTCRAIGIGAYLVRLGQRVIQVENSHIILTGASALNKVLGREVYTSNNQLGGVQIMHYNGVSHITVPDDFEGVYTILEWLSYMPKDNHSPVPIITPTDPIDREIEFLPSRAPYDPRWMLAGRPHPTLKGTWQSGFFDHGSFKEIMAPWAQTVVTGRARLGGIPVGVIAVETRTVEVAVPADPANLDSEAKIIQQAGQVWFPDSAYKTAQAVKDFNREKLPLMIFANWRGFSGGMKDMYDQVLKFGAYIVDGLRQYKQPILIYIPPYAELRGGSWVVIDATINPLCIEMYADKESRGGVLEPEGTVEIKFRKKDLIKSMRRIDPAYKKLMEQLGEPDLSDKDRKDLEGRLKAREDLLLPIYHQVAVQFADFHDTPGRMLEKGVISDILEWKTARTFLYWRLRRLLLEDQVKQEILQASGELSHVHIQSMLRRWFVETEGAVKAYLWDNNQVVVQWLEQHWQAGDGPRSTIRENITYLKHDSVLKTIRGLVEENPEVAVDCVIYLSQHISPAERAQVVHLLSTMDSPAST

In turn, `CCOc1ccc(C#Cc2ccc(CC(C)NC(=O)C3CC(OC)C3)cc2)cc1` (stereo not shown) came in with an IC50 of 860 nM.

The IC50 is the concentration needed to halve the response being measured. A high value points to a need for much substance.
